Apparent affinities of Ab-91 variants for a coronavirus HR2 peptide

Values reported by Engelhart et al. 2022, doi:10.1038/s41597-022-01779-4 (FLAb copy).

Binding partner: SARS-CoV-2 spike HR2 peptide, sequence PDVDLGDISGINAS.

Each scFv is VL, three GGGGS repeats, VH, as in the parent Ab-91, and differs from it in the CDRs of the heavy chain only.
VL: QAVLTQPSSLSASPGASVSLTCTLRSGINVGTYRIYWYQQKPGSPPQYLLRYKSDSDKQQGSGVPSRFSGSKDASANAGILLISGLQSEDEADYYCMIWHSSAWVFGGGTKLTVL
VH: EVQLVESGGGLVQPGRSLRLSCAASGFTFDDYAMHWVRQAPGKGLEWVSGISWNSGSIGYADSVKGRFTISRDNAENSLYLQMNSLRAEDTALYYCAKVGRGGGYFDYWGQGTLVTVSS

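The starting antibody came from a phage panning campaign against this peptide. Library AAYL51 holds single substitutions and randomly drawn double and triple substitutions in the CDRs. The scFvs were displayed on barcoded MATa yeast, the peptide on MATalpha yeast. Binding brings cells together so that they mate, and sequencing counts the barcode pairs among the diploids. Each replicate has its own calibration line, from reference interactions of the BCL2 family. The assay was run in three technical replicates.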

Changes read parent residue, position, new residue, counted from the first residue of the VH shown. This list gathers variants with a substitution at A33 (VH, numbered from residue 1). Kd is apparent (estimated from mating counts) and averaged on the log scale over replicates with a signal. Smaller is tighter. Where no diploid with the target was found in any replicate, the entry reads "nd": below detection, most likely a poor binder, though not proof of it. Background: pairings of library AAYL51 with three empty control strains gave a value in 21% of cases (median 34 µM, 5th percentile 1.8 µM). Values in that range, when seen in few replicates, are hard to tell from nonspecific mating. In this assay the parent's reference entry averaged 72 nM; its copy inside this library read 7.5 nM.

The variant F29Y/A33Q/Y60W gave nd (0 of 3 replicates). With A33C/S52N/A61Y the result was nd (0 of 3 replicates). The variant D31R/A33Q/K65Q gave 120 µM (1 of 3 replicates). With A33W/D62G the result was 62 µM (2 of 3 replicates). With A33L/D62W/Y108L the result was 17 µM (1 of 3 replicates). For A33R/V99W/G102F, the assay gave 74 µM (1 of 3 replicates). The variant A33Y/G50E/Y105K showed nd (0 of 3 replicates). The variant F27C/Y32C/A33G gave 1.7 µM (3 of 3 replicates).

For D30T/A33F/G56N, the assay gave 30 µM (1 of 3 replicates). The variant T28E/A33V/S57I gave 110 µM (2 of 3 replicates). The variant A33K/D62K/V99K showed nd (0 of 3 replicates). The variant A33Q/Y60E/Y105G gave 960 µM (2 of 3 replicates). With A33N/S63W/K65C the result was 260 µM (3 of 3 replicates). With Y32S/A33P/S57I the result was 8.1 µM (1 of 3 replicates). The variant A33R/G59P/Y108V gave nd (0 of 3 replicates). The variant A33E/S63F/G104F showed 19 µM (2 of 3 replicates).

The variant A33Y/K65E/R101Q showed 220 µM (3 of 3 replicates). With A33I/W53F/G56Y the result was 55 µM (1 of 3 replicates). The variant T28H/A33Y gave 4.3 µM (1 of 3 replicates). The variant A33P/V99D gave 65 µM (3 of 3 replicates). The variant A33W/G59F/D107E showed nd (0 of 3 replicates). The variant A33Y/K65D/G103S gave 5.1 µM (1 of 3 replicates). For A33V/V64S, the assay gave nd (0 of 3 replicates). With A33I/I58Q/D62M the result was nd (0 of 3 replicates).

With A33I/G102R/Y108D the result was nd (0 of 3 replicates). The variant Y32Q/A33D/S63Q showed 200 µM (3 of 3 replicates). The variant G26Q/A33P/D107K gave 890 nM (1 of 3 replicates). The variant A33L/G56S/D62V showed nd (0 of 3 replicates). The variant A33V/W53S/F106M showed nd (0 of 3 replicates). The variant D30E/A33T/G59S gave 96 µM (2 of 3 replicates). The variant A33G gave 74 µM (2 of 3 replicates). The variant A33G/G50N/K65N showed nd (0 of 3 replicates).

With G26M/A33N/G103C the result was nd (0 of 3 replicates). The variant A33Y/I58E/G59N gave nd (0 of 3 replicates). The variant A33Y/G59R/G102Y gave 7.3 µM (1 of 3 replicates). The variant D31P/A33S/F106C showed 40 µM (1 of 3 replicates). The variant T28Q/A33R/N54F gave nd (0 of 3 replicates). The variant Y32H/A33W/K65A showed nd (0 of 3 replicates).

Excerpt, the final 5 entries:

{"changes": "A33Y/I58E/G59N", "Kd": "nd", "detected": "0/3"}
{"changes": "A33Y/G59R/G102Y", "Kd": "7.3 µM", "detected": "1/3"}
{"changes": "D31P/A33S/F106C", "Kd": "40 µM", "detected": "1/3"}
{"changes": "T28Q/A33R/N54F", "Kd": "nd", "detected": "0/3"}
{"changes": "Y32H/A33W/K65A", "Kd": "nd", "detected": "0/3"}